Assay results as given in PubChem BioAssay (NCI).
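How tested: cells in 96-well plates exposed to compound for 48 hours at five concentrations. GI50 = concentration required for 50% inhibition of growth. TGI is the concentration that stops growth completely.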

Tests used:
Test in all cases: inhibition of tumour cell growth, NCI panel, 48 h; in the data active = GI50 below about 0.43 µM; inactive = the rest
786-0 renal = tested on: 786-0 renal
A549 NSCLC = tested on: A549 NSCLC
ACHN renal = tested on: ACHN renal
BT-549 breast = tested on: BT-549 breast
CAKI-1 renal = tested on: CAKI-1 renal
CCRF-CEM leukemia = tested on: CCRF-CEM leukemia
COLO 205 colon = tested on: COLO 205 colon
DU-145 prostate = tested on: DU-145 prostate
EKVX NSCLC = tested on: EKVX NSCLC
HCC-2998 colon = tested on: HCC-2998 colon
HCT-116 colon = tested on: HCT-116 colon
HCT-15 colon = tested on: HCT-15 colon
HL-60(TB) leukemia = tested on: HL-60(TB) leukemia
HOP-62 NSCLC = tested on: HOP-62 NSCLC
HS 578T breast = tested on: HS 578T breast
HT29 colon = tested on: HT29 colon
IGROV1 ovarian = tested on: IGROV1 ovarian
K-562 leukemia = tested on: K-562 leukemia
KM12 colon = tested on: KM12 colon
LOX IMVI melanoma = tested on: LOX IMVI melanoma
M14 melanoma = tested on: M14 melanoma
MALME-3M melanoma = tested on: MALME-3M melanoma
MCF7 breast = tested on: MCF7 breast
MDA-MB-231 breast = tested on: MDA-MB-231 breast
MDA-MB-435 = tested on: MDA-MB-435
MDA-N = tested on: MDA-N
MOLT-4 leukemia = tested on: MOLT-4 leukemia
NCI-H23 lung = tested on: NCI-H23 lung
NCI-H322M lung = tested on: NCI-H322M lung
NCI-H460 lung = tested on: NCI-H460 lung
NCI-H522 lung = tested on: NCI-H522 lung
NCI/ADR-RES ovarian = tested on: NCI/ADR-RES ovarian
OVCAR-3 ovarian = tested on: OVCAR-3 ovarian
OVCAR-4 ovarian = tested on: OVCAR-4 ovarian
OVCAR-5 ovarian = tested on: OVCAR-5 ovarian
OVCAR-8 ovarian = tested on: OVCAR-8 ovarian
PC-3 prostate = tested on: PC-3 prostate
RXF 393 renal = tested on: RXF 393 renal
SF-268 CNS = tested on: SF-268 CNS
SF-295 CNS = tested on: SF-295 CNS
SF-539 CNS = tested on: SF-539 CNS
SK-MEL-2 melanoma = tested on: SK-MEL-2 melanoma
SK-MEL-28 melanoma = tested on: SK-MEL-28 melanoma
SK-MEL-5 melanoma = tested on: SK-MEL-5 melanoma
SK-OV-3 ovarian = tested on: SK-OV-3 ovarian
SN12C renal = tested on: SN12C renal
SNB-19 CNS = tested on: SNB-19 CNS
SNB-75 CNS = tested on: SNB-75 CNS
SR leukemia = tested on: SR leukemia
SW-620 colon = tested on: SW-620 colon
T-47D breast = tested on: T-47D breast
TK-10 renal = tested on: TK-10 renal
U251 CNS = tested on: U251 CNS
UACC-257 melanoma = tested on: UACC-257 melanoma
UACC-62 melanoma = tested on: UACC-62 melanoma
UO-31 renal = tested on: UO-31 renal

CP1(=O)N(Cc2ccccc2)[C@@H]2CCCC[C@H]2N1Cc1ccccc1
57.4 µM: TGI (NCI-H522 lung)
98.4 µM: TGI (OVCAR-4 ovarian)
> 100 µM: TGI (786-0 renal) | TGI (A549 NSCLC) | TGI (ACHN renal) | TGI (BT-549 breast) | TGI (CAKI-1 renal) | TGI (CCRF-CEM leukemia) | TGI (DU-145 prostate) | TGI (EKVX NSCLC) | TGI (HCT-116 colon) | TGI (HCT-15 colon) | TGI (HOP-62 NSCLC) | TGI (HS 578T breast) | TGI (HT29 colon) | TGI (K-562 leukemia) | TGI (KM12 colon) | TGI (LOX IMVI melanoma) | TGI (MALME-3M melanoma) | TGI (MCF7 breast) | TGI (MDA-MB-231 breast) | TGI (MDA-MB-435) | TGI (MDA-N) | TGI (NCI-H23 lung) | TGI (NCI-H322M lung) | TGI (NCI-H460 lung) | TGI (NCI/ADR-RES ovarian) | TGI (OVCAR-3 ovarian) | TGI (OVCAR-5 ovarian) | TGI (PC-3 prostate) | TGI (RXF 393 renal) | TGI (SF-268 CNS) | TGI (SF-295 CNS) | TGI (SK-MEL-2 melanoma) | TGI (SK-MEL-28 melanoma) | TGI (SK-OV-3 ovarian) | TGI (SN12C renal) | TGI (SNB-19 CNS) | TGI (SW-620 colon) | TGI (TK-10 renal) | TGI (U251 CNS) | TGI (UACC-62 melanoma) | TGI (UO-31 renal)
99.6 µM: TGI (UACC-257 melanoma)
64.1 µM: TGI (T-47D breast)
45 µM: TGI (SK-MEL-5 melanoma)
inactive: GI50 (786-0 renal) 44.4 µM | GI50 (A549 NSCLC) 40.2 µM | GI50 (ACHN renal) 55.9 µM | GI50 (BT-549 breast) 57.6 µM | GI50 (CAKI-1 renal) 43.9 µM | GI50 (CCRF-CEM leukemia) 40.7 µM | GI50 (COLO 205 colon) 15.5 µM | GI50 (DU-145 prostate) 44.3 µM | GI50 (EKVX NSCLC) 42.7 µM | GI50 (HCC-2998 colon) 22.3 µM | GI50 (HCT-116 colon) 26.3 µM | GI50 (HCT-15 colon) 37.5 µM | GI50 (HL-60(TB) leukemia) 23.4 µM | GI50 (HOP-62 NSCLC) 98.3 µM | GI50 (HS 578T breast) 32 µM | GI50 (HT29 colon) 25.4 µM | GI50 (IGROV1 ovarian) 27.2 µM | GI50 (K-562 leukemia) 37.4 µM | GI50 (KM12 colon) 31 µM | GI50 (LOX IMVI melanoma) 33.9 µM | GI50 (M14 melanoma) 24 µM | GI50 (MALME-3M melanoma) 32.8 µM | GI50 (MCF7 breast) 39.7 µM | GI50 (MDA-MB-231 breast) 28.8 µM | GI50 (MDA-MB-435) 30.6 µM | GI50 (MDA-N) 37.8 µM | GI50 (MOLT-4 leukemia) 22.5 µM | GI50 (NCI-H23 lung) 34.2 µM | GI50 (NCI-H322M lung) 70.3 µM | GI50 (NCI-H460 lung) 49.9 µM | GI50 (NCI-H522 lung) 20.2 µM | GI50 (NCI/ADR-RES ovarian) 30 µM | GI50 (OVCAR-3 ovarian) 31.9 µM | GI50 (OVCAR-4 ovarian) 23.8 µM | GI50 (OVCAR-5 ovarian) > 100 µM | GI50 (OVCAR-8 ovarian) 28.4 µM | GI50 (PC-3 prostate) 32.4 µM | GI50 (RXF 393 renal) 25.9 µM | GI50 (SF-268 CNS) 40.6 µM | GI50 (SF-295 CNS) 38.2 µM | GI50 (SF-539 CNS) 23.7 µM | GI50 (SK-MEL-2 melanoma) 77.1 µM | GI50 (SK-MEL-28 melanoma) > 100 µM | GI50 (SK-MEL-5 melanoma) 20.3 µM | GI50 (SK-OV-3 ovarian) 40.6 µM | GI50 (SN12C renal) 31 µM | GI50 (SNB-19 CNS) 64.1 µM | GI50 (SNB-75 CNS) 15.9 µM | GI50 (SR leukemia) 24.1 µM | GI50 (SW-620 colon) 41.3 µM | GI50 (T-47D breast) 20.4 µM | GI50 (TK-10 renal) 38.2 µM | GI50 (U251 CNS) 39 µM | GI50 (UACC-257 melanoma) 29.7 µM | GI50 (UACC-62 melanoma) 45.6 µM | GI50 (UO-31 renal) 23.1 µM
35.7 µM: TGI (COLO 205 colon)
84.4 µM: TGI (OVCAR-8 ovarian)
84.1 µM: TGI (SF-539 CNS)
89 µM: TGI (IGROV1 ovarian)
62.5 µM: TGI (MOLT-4 leukemia)
60.6 µM: TGI (HCC-2998 colon)
57.8 µM: TGI (SR leukemia)
51.7 µM: TGI (HL-60(TB) leukemia)
78.5 µM: TGI (M14 melanoma)
66.1 µM: TGI (SNB-75 CNS)
